Data on one molecule can be found in patent publication US20190085055A1 (Zymeworks, published 2019).

Amino acid sequences for entries named in this document (tags omitted). Residues count along the entry.
UniProt P13726, 33-251: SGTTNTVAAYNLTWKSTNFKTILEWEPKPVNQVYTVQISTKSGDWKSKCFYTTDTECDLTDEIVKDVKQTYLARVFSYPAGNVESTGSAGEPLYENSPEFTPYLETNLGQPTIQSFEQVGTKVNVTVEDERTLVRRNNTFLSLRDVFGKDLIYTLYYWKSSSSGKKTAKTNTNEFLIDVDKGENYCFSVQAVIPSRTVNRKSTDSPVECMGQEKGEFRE

The assay concerns the target T1, tissue factor extracellular domains (human, UniProt P13726 33-251).
T1 construct: extracellular domain; also called TF; purified tissue factor
The assay is described as follows: SPR, antibody captured by anti-human Fc, antigen as analyte; lower end of the observed KD range of the WT control. On the technique in general: SPR reads the build-up and loss of mass on a sensor chip optically.

B1: D3H44 homodimeric Mab control (WT) (antibody, V domains shown)
VH: EVQLVESGGGLVQPGGSLRLSCAASGFNIKEYYMHWVRQAPGKGLEWVGLIDPEQGNTIYDPKFQDRATISADNSKNTAYLQMNSLRAEDTAVYYCARDTAAYFDYWGQGTLVTVSS
VL: DIQMTQSPSSLSASVGDRVTITCRASRDIKSYLNWYQQKPGKAPKVLIYYATSLAEGVPSRFSGSGSGTDYTLTISSLQPEDFATYYCLQHGESPWTFGQGTKVEIKR
notes: also called Homodimeric Mab (WT) D3H44
Take B1: the Kd lay within 40 to 76 pM.

One may read the Kd as a measure of binding affinity in units of concentration.
